# Data as given in PMC11024108.
# The other results are listed elsewhere or left out.
# Target: RCC1-like G exchanging factor-like protein (UniProt Q96I51)
# Assay: cross-link between two proteins; cross-linking mass spectrometry
substance,measurement,value
"Large ribosomal subunit protein mL64, Q8TAE8",listed as a hit,yes
